This is an account of results in PubChem BioAssay AID1239 (SRMLSC, 2008).

Molecules are shown by their SMILES. Only a part is listed here, and it is no random draw. Calls of active or inactive are those of the source. No stated cut-off is given here; in the data, active means fold change above about 3.3; inconclusive means no clear call, values can overlap the other calls; inactive means below that.

This test can be described thus: activators of NF-kB expression in neurons, primary screen, cell-based, HTS (AID 1239). Conditions: human neuronal cells, NF-kB reporter expression; at 12.5 µM; stronger effect = higher value.
As for `CN1CCN(CCOC(=O)C(O)(c2ccccc2)c2ccccc2)CC1`, the fold change is inactive: 0.88.
Regarding `COc1ccc(NC2CCN(C(=O)OC(C)(C)C)CC2)cc1`, the fold change was inactive: 1.26.
With `O=C(NCC1(N2CCOCC2)CCCCC1)c1cc(=O)[nH]c2ccccc12` the figure was inactive: 1.2; with `O=C(NCC1(N2CCCCC2)CCCCC1)c1cccc([N+](=O)[O-])c1`, inactive: 0.91.
With `N#CC1(Nc2ccccc2)CCN(CCc2ccccc2)CC1` the figure was inactive: 1.33; with `CN(C)c1cccc(C(=O)NCC2(N3CCCCC3)CCCCC2)c1`, inactive: 0.99.
With `COc1ccc(CN(CCCl)CCCl)cc1Cl` the figure was inactive: 1.27.
Consider `CC(C)c1ccc(NC2CCN(C(=O)OC(C)(C)C)CC2)cc1`, for which the fold change is inactive: 1.27.
For `O=C(NCC1(N2CCOCC2)CCCCC1)c1cc2ccccc2o1`, the fold change was inactive: 0.91.
With `CCOC(=O)N1CCC(Nc2ccc(OC)cc2)CC1` the figure was inactive: 0.89; with `O=C(OC1CN2CCC1CC2)C1c2ccccc2Oc2ccccc21` (stereo not given), inactive: 1.31.
Consider `COc1ccc(C(=O)NCC2(N3CCCCC3)CCCCC2)c(OC)c1OC`, for which the fold change is inactive: 1.09.
For the molecule `COc1ccc(NC2CCN(CCc3ccccc3)CC2)c(OC)c1`, the fold change was inactive: 0.86.
With `CCN1CCC(Nc2cccc(F)c2)CC1` the figure was inactive: 1.17.
With `CN(C)c1ccc(C(=O)NCC2(N3CCCCC3)CCCCC2)cc1` the figure was inactive: 0.89; with `Fc1ccccc1NC1CCN(Cc2ccccc2)CC1`, inactive: 1.06.
With `CCC(CO)(C(=O)OC1CN2CCC1CC2)c1ccccc1` (stereo not given) the figure was inactive: 0.96; with `COc1cc(OC)cc(C(=O)NCC2(N3CCOCC3)CCCCC2)c1`, inactive: 1.05.
Consider `CCOc1ncccc1C(=O)NCC1(N2CCOCC2)CCCCC1`, for which the fold change is inactive: 1.06.
With `CC(C)(C)OC(=O)N1CCC(Nc2ccccc2)CC1` the figure was inactive: 1.19; with `N/C(=N\O)c1c(N)no[n+]1[O-]`, inactive: 1.11; with `O=C(OC1CN2CCC1CC2)C1c2ccccc2C=Cc2ccccc21` (stereo not given), inactive: 1.19.
As for `COc1ccc(C(=O)NCC2(N3CCOCC3)CCCCC2)cc1OC`, the fold change is inactive: 1.09.
For the molecule `c1ccc(CN2CCC(Nc3ccccc3)CC2)cc1`, the fold change was inactive: 1.11.
With `N#Cc1ccc(C(=O)NCC2(N3CCCCC3)CCCCC2)cc1` the figure was inactive: 0.82.
